Amino acid sequences for entries named in this document (tags omitted). Residues count along the entry.
UniProt P62575, 54-1006: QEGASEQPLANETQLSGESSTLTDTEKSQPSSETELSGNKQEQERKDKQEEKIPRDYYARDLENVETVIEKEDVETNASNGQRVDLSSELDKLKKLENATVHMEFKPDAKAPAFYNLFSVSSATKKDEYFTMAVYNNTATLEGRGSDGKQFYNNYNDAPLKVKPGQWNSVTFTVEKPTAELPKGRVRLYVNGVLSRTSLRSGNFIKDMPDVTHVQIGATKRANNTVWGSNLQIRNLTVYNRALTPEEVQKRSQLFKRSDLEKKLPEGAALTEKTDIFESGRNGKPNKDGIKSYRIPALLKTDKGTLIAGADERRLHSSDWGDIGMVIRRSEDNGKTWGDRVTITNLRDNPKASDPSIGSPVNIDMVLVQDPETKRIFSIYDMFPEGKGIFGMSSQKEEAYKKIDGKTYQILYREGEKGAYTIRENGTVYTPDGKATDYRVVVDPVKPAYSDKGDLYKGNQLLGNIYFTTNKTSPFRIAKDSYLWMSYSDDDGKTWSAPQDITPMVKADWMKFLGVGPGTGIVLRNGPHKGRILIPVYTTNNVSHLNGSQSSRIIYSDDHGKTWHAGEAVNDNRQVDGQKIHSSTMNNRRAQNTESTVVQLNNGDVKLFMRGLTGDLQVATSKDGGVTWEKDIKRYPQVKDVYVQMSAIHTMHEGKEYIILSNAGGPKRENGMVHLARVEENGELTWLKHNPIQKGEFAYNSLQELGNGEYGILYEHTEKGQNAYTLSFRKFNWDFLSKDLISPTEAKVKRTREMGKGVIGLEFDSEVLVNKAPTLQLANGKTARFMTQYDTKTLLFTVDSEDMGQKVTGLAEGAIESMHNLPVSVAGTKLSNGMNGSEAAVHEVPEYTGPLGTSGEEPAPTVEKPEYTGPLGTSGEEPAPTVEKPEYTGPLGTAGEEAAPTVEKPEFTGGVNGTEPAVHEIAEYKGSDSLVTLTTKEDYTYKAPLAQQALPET

In patent US11325936B2, “Sialidase inhibitors and preparation thereof” (The Regents of the University of California, priority 2017, dated 2022):

Biological target: SpNanA (Streptococcus pneumoniae, UniProt P62575)
Experiment: Sialidase inhibition assay (Example 4)
Assay type: biochemical

Structure (SMILES): CC(=O)N[C@H]1[C@H]([C@H](O)[C@H](O)CO)OC(C(=O)O)=C[C@@H]1O [compound 6, 5-Acetamido-2,6-anhydro-3,5-dideoxy-D-glycero-D-galacto-non-2-enonic acid, reference compound]
- IC50: 10 ± 0.2 µM
